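These data come from cells grown in 96-well plates and exposed to compound for 48 hours at five concentrations. Here, GI50 denotes the concentration required for 50% inhibition of growth. TGI marks complete inhibition of growth.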
Key:
Experiment in all cases: NCI anticancer screen, dose series, 48 h
[1] = system: SF-295 CNS
[2] = system: UACC-62 melanoma
[3] = system: U251 CNS
[4] = system: CCRF-CEM leukemia
[5] = system: UO-31 renal
[6] = system: KM12 colon
[7] = system: HOP-62 NSCLC
[8] = system: SW-620 colon
[9] = system: DU-145 prostate
[10] = system: MDA-MB-435
[11] = system: PC-3 prostate
[12] = system: EKVX NSCLC
[13] = system: RPMI-8226 leukemia
[14] = system: UACC-257 melanoma
[15] = system: NCI-H322M lung
[16] = system: HCT-15 colon
[17] = system: BT-549 breast
[18] = system: MOLT-4 leukemia
[19] = system: CAKI-1 renal
[20] = system: COLO 205 colon
[21] = system: HCT-116 colon
[22] = system: SK-MEL-2 melanoma
[23] = system: K-562 leukemia
[24] = system: HOP-92 NSCLC
[25] = system: SR leukemia
[26] = system: SF-539 CNS
[27] = system: OVCAR-8 ovarian
[28] = system: A498 renal
[29] = system: HS 578T breast
[30] = system: OVCAR-3 ovarian
[31] = system: MDA-MB-231 breast
[32] = system: MCF7 breast
[33] = system: A549 NSCLC
[34] = system: ACHN renal
[35] = system: NCI-H522 lung
[36] = system: OVCAR-5 ovarian
[37] = system: SNB-19 CNS
[38] = system: NCI-H460 lung
[39] = system: SK-OV-3 ovarian
[40] = system: SNB-75 CNS
[41] = system: LOX IMVI melanoma
[42] = system: 786-0 renal
[43] = system: NCI-H226 lung
[44] = system: T-47D breast
[45] = system: MALME-3M melanoma
[46] = system: M14 melanoma
[47] = system: SN12C renal
[48] = system: SK-MEL-28 melanoma
[49] = system: OVCAR-4 ovarian
[50] = system: HT29 colon
[51] = system: RXF 393 renal
[52] = system: HL-60(TB) leukemia
[53] = system: IGROV1 ovarian
[54] = system: SF-268 CNS
[55] = system: NCI/ADR-RES ovarian
[56] = system: TK-10 renal
[57] = system: NCI-H23 lung
[58] = system: MDA-N
[59] = system: SK-MEL-5 melanoma
[60] = system: HCC-2998 colon

## N#C/C(=C\c1ccc(N(CCBr)CCBr)cc1)C(N)=O
[1]
  TGI: 6.27 µM
[2]
  TGI: 256 nM
[3]
  TGI: 20 µM
[4]
  TGI: 54.1 µM
[5]
  TGI: 32.5 µM
[6]
  TGI: 7.12 µM
[7]
  TGI: 10.5 µM
[8]
  TGI: > 100 µM
[9]
  TGI: 49.4 µM
[10]
  TGI: 3.13 µM
[11]
  TGI: 45.7 µM
[12]
  TGI: 16.2 µM
[13]
  TGI: 26.2 µM
[14]
  TGI: 6.19 µM
[15]
  TGI: 13.5 µM
[16]
  TGI: 7.28 µM
[17]
  TGI: 26.6 µM
[18]
  TGI: 2290 nM
[19]
  TGI: 3.18 µM
[20]
  TGI: 5.23 µM
[21]
  TGI: 7.93 µM
[22]
  TGI: 70.5 µM
[23]
  TGI: 52.8 µM
[24]
  TGI: > 100 µM
[25]
  TGI: > 100 µM
[26]
  TGI: 15.6 µM
[27]
  TGI: 7.35 µM
[28]
  TGI: 4.78 µM
[29]
  TGI: 74.7 µM
[30]
  TGI: 7.12 µM
[31]
  TGI: 25 µM
[32]
  TGI: 13.4 µM
[33]
  TGI: 4.58 µM
[34]
  TGI: 2590 nM
[35]
  TGI: 22.7 µM
[36]
  TGI: 22.6 µM
[37]
  TGI: > 100 µM
[38]
  TGI: 24.1 µM
[39]
  TGI: 60.8 µM
[40]
  TGI: 28.9 µM
[41]
  TGI: 4.06 µM
[42]
  TGI: 11.9 µM
[43]
  TGI: 3.19 µM
[44]
  TGI: 27.8 µM
[45]
  TGI: 1850 nM
[46]
  TGI: 3.42 µM
[47]
  TGI: 7.03 µM
[48]
  TGI: 17.3 µM
[49]
  TGI: > 100 µM
[50]
  TGI: > 100 µM
[51]
  TGI: 23.1 µM
[52]
  TGI: 5.52 µM
[53]
  TGI: 42 µM
[54]
  TGI: 16.9 µM
[55]
  TGI: 3.16 µM
[56]
  TGI: 4.08 µM
[57]
  TGI: 3.2 µM

## COP(=O)(OC)N(C)[Si](C)(C)C
[1]
  GI50: > 100 µM
  TGI: > 100 µM
[2]
  GI50: > 100 µM
  TGI: > 100000 nM
[3]
  GI50: > 100 µM
  TGI: > 100 µM
[58]
  GI50: > 100 µM
  TGI: > 100 µM
[4]
  GI50: > 100 µM
  TGI: > 100 µM
[5]
  GI50: > 100 µM
  TGI: > 100 µM
[6]
  GI50: > 100 µM
  TGI: > 100 µM
[7]
  GI50: > 100 µM
  TGI: > 100 µM
[8]
  GI50: > 100 µM
  TGI: > 100 µM
[9]
  GI50: > 100 µM
  TGI: > 100 µM
[10]
  GI50: > 100 µM
  TGI: > 100 µM
[11]
  GI50: > 100 µM
  TGI: > 100 µM
[12]
  GI50: > 100 µM
  TGI: > 100 µM
[13]
  GI50: > 100 µM
  TGI: > 100 µM
[14]
  GI50: > 100 µM
  TGI: > 100 µM
[15]
  GI50: > 100 µM
  TGI: > 100 µM
[16]
  GI50: > 100 µM
  TGI: > 100 µM
[17]
  GI50: > 100 µM
  TGI: > 100 µM
[18]
  GI50: > 100 µM
  TGI: > 100000 nM
[19]
  GI50: > 100 µM
  TGI: > 100 µM
[20]
  GI50: > 100 µM
  TGI: > 100 µM
[21]
  GI50: > 100 µM
  TGI: > 100 µM
[22]
  GI50: > 100 µM
  TGI: > 100 µM
[23]
  GI50: > 100 µM
  TGI: > 100 µM
[24]
  GI50: > 100 µM
  TGI: > 100 µM
[25]
  GI50: > 100 µM
  TGI: > 100 µM
[59]
  GI50: > 100 µM
  TGI: > 100 µM
[26]
  GI50: > 100 µM
  TGI: > 100 µM
[27]
  GI50: > 100 µM
  TGI: > 100 µM
[28]
  GI50: > 100 µM
  TGI: > 100 µM
[29]
  GI50: > 100 µM
  TGI: > 100 µM
[30]
  GI50: > 100 µM
  TGI: > 100 µM
[31]
  GI50: > 100 µM
  TGI: > 100 µM
[32]
  GI50: > 100 µM
  TGI: > 100 µM
[33]
  GI50: > 100 µM
  TGI: > 100 µM
[34]
  GI50: > 100 µM
  TGI: > 100000 nM
[35]
  GI50: > 100 µM
  TGI: > 100 µM
[36]
  GI50: > 100 µM
  TGI: > 100 µM
[37]
  GI50: > 100 µM
  TGI: > 100 µM
[38]
  GI50: > 100 µM
  TGI: > 100 µM
[39]
  GI50: > 100 µM
  TGI: > 100 µM
[40]
  GI50: 84.6 µM
  TGI: > 100 µM
[60]
  GI50: > 100 µM
  TGI: > 100 µM
[41]
  GI50: > 100 µM
  TGI: > 100 µM
[42]
  GI50: > 100 µM
  TGI: > 100 µM
[43]
  GI50: > 100 µM
  TGI: > 100 µM
[44]
  GI50: > 100 µM
  TGI: > 100 µM
[45]
  GI50: > 100 µM
  TGI: > 100000 nM
[46]
  GI50: > 100 µM
  TGI: > 100 µM
[47]
  GI50: > 100 µM
  TGI: > 100 µM
[48]
  GI50: > 100 µM
  TGI: > 100 µM
[49]
  GI50: > 100 µM
  TGI: > 100 µM
[50]
  GI50: > 100 µM
  TGI: > 100 µM
[51]
  GI50: > 100 µM
  TGI: > 100 µM
[52]
  GI50: > 100 µM
  TGI: > 100 µM
[53]
  GI50: > 100 µM
  TGI: > 100 µM
[54]
  GI50: > 100 µM
  TGI: > 100 µM
[55]
  GI50: > 100 µM
  TGI: > 100 µM
[56]
  GI50: > 100 µM
  TGI: > 100 µM
[57]
  GI50: > 100 µM
  TGI: > 100 µM

From PubChem BioAssay (NCI)
